Laboratory results from PubChem BioAssay AID651954 (NMMLSC, 2012).
Only a part is listed here, and it is no random draw. Active and inactive are the calls of the source. Rule as the data show it: active = inhibition above about 60%; inactive = the rest.

Test: blockers of LAMP-1 surface exposure, TALL-104 – TALL-104 cells, flow cytometry, Cherry Pick01, confirmation (AID 651954);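 also: 0% = stimulated vehicle wells and 100% = unstimulated wells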
Conditions: LAMP-1 externalization, at 10 µM, stronger effect = higher value, stimulated with PMA plus thapsigargin
With `CCC1=CC2Cc3nc4ccc(Cl)cc4c(N)c3C(C1)C2` (configuration not stated) the inhibition was inactive: -8.36%.
For `COc1ccc(C2=NCC(CBr)S2)cc1` (configuration not stated), the inhibition was inactive: -4.65%.
